The numbers were not newly measured in patent US20160022811A1 (Teva Pharmaceutical Industries Ltd., priority 2013, published 2016), which cites them from elsewhere.

The test system of data set [1] is relapsing-remitting MS (RRMS). The following applies: registration trials, comparison with placebo.
For another data set, the system named is MS. Particulars: at one year.

B1: Avonex: IFN beta-1a, FDA-approved drug for RRMS (protein, UniProt P01574 22-187, looked up)
Interferon beta: MSYNLLGFLQRSSNFQCQKLLWQLNGRLEYCLKDRMNFDIPEEIKQLQQFQKEDAALTIYEMLQNIFAIFRQDSSSTGWNETIVENLLANVYHQINHLKTVLEEKLEKEDFTRGKLMSSLHLKRYYGRILHYLKAKEYSHCAWTIVRVEILRNFYFINRLTGYLRN
modifications: interferon beta-1a
notes: IFN beta-1a, FDA-approved drug for RRMS
As to B1, the “reduction of relapse rate” value in data set [1] is listed as “about one third”. For the same molecule, the “number of new and newly enlarged T2 lesions on MRI scans” value in the data set with MS is reported as 2.6.

B2: Rebif: IFN beta-1a, FDA-approved drug for RRMS (protein, UniProt P01574 22-187, looked up)
Interferon beta: B1 Interferon beta
modifications: interferon beta-1a
notes: as for B1
B2: in data set [1], the “reduction of relapse rate” value is “about one third”.
